The structures appear in SMILES notation.

Chains of the proteins cited; added tags and fusions are not shown. Lines headed by an entry give the natural chain unless they say otherwise; changes in a name come on top.
UniProt P43490: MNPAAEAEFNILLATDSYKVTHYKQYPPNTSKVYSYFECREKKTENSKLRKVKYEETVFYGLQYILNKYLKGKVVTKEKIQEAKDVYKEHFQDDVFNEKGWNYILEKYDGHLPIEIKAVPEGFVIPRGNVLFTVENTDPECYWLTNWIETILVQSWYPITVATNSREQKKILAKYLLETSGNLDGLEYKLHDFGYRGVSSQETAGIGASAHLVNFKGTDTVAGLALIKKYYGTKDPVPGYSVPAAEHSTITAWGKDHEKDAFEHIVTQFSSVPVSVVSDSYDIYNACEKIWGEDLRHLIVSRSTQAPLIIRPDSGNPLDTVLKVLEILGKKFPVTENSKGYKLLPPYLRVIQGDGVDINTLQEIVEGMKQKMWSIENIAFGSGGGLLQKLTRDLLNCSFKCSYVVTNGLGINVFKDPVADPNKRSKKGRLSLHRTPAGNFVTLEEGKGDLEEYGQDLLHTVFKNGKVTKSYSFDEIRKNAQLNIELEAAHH

In general, EC50 refers to the concentration at which the effect is half-maximal.

For this assay, the target named is human NAMPT (Homo sapiens, UniProt P43490). Briefly: Human recombinant enzyme assay (NMN fluorescence biochemical assay, activation of NAMPT). As to conditions: Table A, NMN formation, 60 min. As for the experimental part:
Compounds described herein were assayed for their ability to stimulate the synthesis of nicotinamide mononucleotide (NMN) by the enzyme NAMPT. The human recombinant enzyme assay measures the activation of the enzyme activity by compounds using recombinant enzyme and substrates in a buffered cell-free system. The assay conditions closely mimic cellular environments. Dose responses were measured using an assay to detect the formation of nicotinamide mono-nucleotide. All experiments were performed in the 384-well format. Generally, 0.5 μL of DMSO containing varying concentrations of the test compound was mixed with 10 μL of the enzyme reagent solution. Enzyme reactions were initiated with the addition of 10 μL of a solution containing the substrates. The final assay conditions were as follows: 6 nM human NAMPT, 2.5 mM ATP, 20 μM PRPP and 150 μM nicotinamide in 50 mM HEPES, pH 7.2, 1 mM DTT, 1 mM CHAPS 50 mM NaCl, 100 mM MgCl2. Following an incubation of 60 min at ambient temperature, 10 μL of 20% acetophenone in DMSO was added, followed by 10 μL of 2 M KOH and 40 μL of formic acid. The plates were read for fluorescence (Excitation/Emission=355 nm/460 nm) using an EnVision plate reader after 40 mins of incubation at ambient temperature. The potency measurements for compounds, are quantified and represented as AC1.4 (the concentration of compounds that generates 40% higher activity over basal) and EC50 (concentration of the compound that gives half-maximal activation).

As for `NC(=O)c1ccc(CNC(=O)NC2CC(c3ccccc3)C2)cc1` (stereo not drawn) [Compound 4, 4-((3-(3-phenylcyclobutyl)ureido)methyl)benzamide], the EC50 was 28.5 µM. Consider `COc1ccc(CNC(=O)NC2CC3(C2)CC(c2nc(-c4ccccc4)co2)C3)cc1` (stereo not drawn) [Compound 326, 1-(4-methoxybenzyl)-3-(6-(4-phenyloxazol-2-yl)spiro[3.3]heptan-2-yl)urea], for which the EC50 was 2.9 µM. For the compound `O=C(NCc1ccc(Cl)cc1)N[C@H]1C[C@]2(CCN(C(=O)N3CCC(N4CCCCC4)CC3)C2)C1` [Compound 354, 1-((2r,4s)-6-([1,4′-bipiperidine]-1′-carbonyl)-6-azaspiro[3.4]octan-2-yl)-3-(4-chlorobenzyl)urea], the half-maximal effective concentration (EC50) is 10.8 µM.

(Values after US20230348369A1 (Cytokinetics, Inc., priority 2020, published 2023).)
